By UniProt entry, the sequences of proteins in these tests, tags left out. Residues count along the entry.
UniProt P02745, 23-245: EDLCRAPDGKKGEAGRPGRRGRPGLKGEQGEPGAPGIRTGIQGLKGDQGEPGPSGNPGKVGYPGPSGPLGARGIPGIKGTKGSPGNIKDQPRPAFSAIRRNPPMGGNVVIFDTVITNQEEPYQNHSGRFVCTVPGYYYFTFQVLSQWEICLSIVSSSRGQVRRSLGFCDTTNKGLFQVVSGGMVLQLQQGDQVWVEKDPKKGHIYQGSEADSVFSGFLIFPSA
Human complement component C1q, UniProt P02746, 28-253: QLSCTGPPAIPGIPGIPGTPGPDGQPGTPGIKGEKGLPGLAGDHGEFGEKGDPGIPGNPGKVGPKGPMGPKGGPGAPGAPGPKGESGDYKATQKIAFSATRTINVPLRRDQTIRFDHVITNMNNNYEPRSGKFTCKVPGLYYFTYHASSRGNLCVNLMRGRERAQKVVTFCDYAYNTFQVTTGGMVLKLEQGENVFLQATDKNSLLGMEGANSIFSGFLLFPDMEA
Human complement component C1q, UniProt P02747, 29-245: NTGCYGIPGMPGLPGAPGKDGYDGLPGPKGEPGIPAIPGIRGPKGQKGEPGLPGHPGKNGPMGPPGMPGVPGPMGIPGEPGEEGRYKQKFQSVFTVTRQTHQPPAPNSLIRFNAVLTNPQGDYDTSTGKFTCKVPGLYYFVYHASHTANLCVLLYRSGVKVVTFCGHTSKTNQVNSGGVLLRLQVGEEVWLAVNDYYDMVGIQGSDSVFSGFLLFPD

According to article PMC8771642:

Biological target: (IgG1)6:(sEGFR)12, pre-formed complex of IgG1-RGY hexamer with soluble EGFR (UniProt P00533)
Experiment: native charge detection MS

Human complement component C1q (from UniProt P02745 23-245; P02746 28-253; P02747 29-245) (complex)
stoichiometry N: 1
